Results taken from paper PMC5447464 (Gastroenterology, 2017).

System: primary hepatocytes Hu1651
Experiment: Viability of primary hepatocytes Hu1651
Type: cell-based
Conditions: Homo sapiens, Hepatocyte, read-out: IC50 in primary hepatocytes, Hu1651

`O=C(Nc1ccc([N+](=O)[O-])cc1Cl)c1cc(Cl)ccc1O` [niclosamide] was tested, and the IC50 was 3.58 µM.
